# System: human peripheral blood T cells
# Assay: Naloxone inhibition of T cell migration to stimuli
# Assay type: cell-based
# Details: donor 4, stimulus at 100 U/ml; spontaneous locomotion subtracted
substance,measurement,value
IL-2: the lymphokine IL-2,Specific migration without naloxone,"1,440"

# — article PMC2187893 (The Journal of Experimental Medicine, 1990)
